# According to ChEMBL document CHEMBL1155000, “Discovery of a novel series of Notch-sparing gamma-secretase inhibitors” (Bioorg Med Chem Lett, 2008):
# Experiment: Selectivity ratio of EC50 for gamma-secretase to EC50 for mouse notch
row,SMILES,Ratio EC50
1,CC[C@H](C)[C@@H](CO)NS(=O)(=O)c1ccc(Cl)cc1,3.7
2,CC[C@H](C)[C@@H](CO)NS(=O)(=O)c1ccc(Br)cc1,9
